# Test results as given in ChEMBL document CHEMBL1141149, “Novel fluorinated prodrugs for activation by carboxypeptidase G2 showing good in vivo antitumor activity in gene-directed enzyme prodrug therapy” (J Med Chem, 2005).
# Legend:
# [1] = Chemical half life period as substrates of CPG2 was determined; assay type: ADME
# Outline: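 Compounds diluted from 10 mM DMSO stocks to 100 μM final in CPG2 assay buffer (100 mM Tris-HCl pH 7.3, 260 μM ZnCl2), no enzyme. Remaining parent measured over time by repeat isocratic reverse-phase HPLC injections (10 mM ammonium acetate pH 5.0/methanol), UV at λmax. Half-life from one-phase exponential decay fit (max 1, min 0).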
# [2] = Cytotoxicity aganist MDA MB361 cell line MDA MB 361 expressing stCPG2(Q)3 done for 1 hr with compound dissolved in DMSO
# [3] = Cytotoxicity against MDA MB361 cell line MDA MB 361 expressing beta-galactosidase done for 1 h with compound dissolved in DMSO
# [4] = Ratio of IC50 of LacZ cell line to stCPG2(Q)3-expressing cell line; assay type: functional, Homo sapiens
# Outline: (§1)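 Selectivity ratio: IC50 in β-gal (LacZ) control MDA MB 361 cells divided by IC50 in CPG2- or stCPG2(Q)3-expressing cells, both from 1 h + 20 h exposure, 5-day regrowth SRB assay.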
# [5] = Cytotoxicity aganist MDA MB361 cell line MDA MB 361 expressing carboxypeptidase G2 done for 1 hr with compound dissolved in DMSO
# [6] = Ratio of IC50 of LacZ cell line to CPG2-expressing cell line; assay type: functional, Homo sapiens; outline: as §1
Compound,T1/2 [1] [min],IC50 [2] [µM],IC50 [3] [µM],Differential [4],IC50 [5] [µM],Differential [6]
O=C(O)c1cc(F)c(N(CCI)CCI)c(F)c1F,13.4,24.7,29.6,1,34.4,1
O=C(O)c1cc(F)c(N(CCCl)CCCl)c(F)c1F,360,57.8,47.6,1,57.9,1
O=C(O)c1cc(F)c(N(CCBr)CCBr)c(F)c1,2.5,21.1,23.4,1,20.6,1
O=C(O)c1c(F)c(F)c(N(CCI)CCI)c(F)c1F,35,60.5,57.7,1,66.7,1
O=C(O)c1cc(F)c(N(CCBr)CCBr)c(F)c1F,8.9,30,44.9,1.5,35.1,1
O=C(O)c1c(F)c(F)c(N(CCCl)CCCl)c(F)c1F,1360,–,–,1,–,1
O=C(O)c1cc(F)c(N(CCCl)CCCl)c(F)c1,91,25.9,23.8,1,22,1
O=C(O)c1cc(F)c(N(CCI)CCI)c(F)c1,4.2,12.7,6,0.5,11.9,1
